Literature values as cited in patent publication US20110117200A1, “RASAGILINE MESYLATE PARTICLES AND PROCESS FOR THE PREPARATION THEREOF” (ACTAVIS GROUP PTC EHF, priority 2008, published 2011).

Protein sequences, listed by entry. Tags and fused reporters are not part of them.
UniProt P27338, whole entry, species assumed: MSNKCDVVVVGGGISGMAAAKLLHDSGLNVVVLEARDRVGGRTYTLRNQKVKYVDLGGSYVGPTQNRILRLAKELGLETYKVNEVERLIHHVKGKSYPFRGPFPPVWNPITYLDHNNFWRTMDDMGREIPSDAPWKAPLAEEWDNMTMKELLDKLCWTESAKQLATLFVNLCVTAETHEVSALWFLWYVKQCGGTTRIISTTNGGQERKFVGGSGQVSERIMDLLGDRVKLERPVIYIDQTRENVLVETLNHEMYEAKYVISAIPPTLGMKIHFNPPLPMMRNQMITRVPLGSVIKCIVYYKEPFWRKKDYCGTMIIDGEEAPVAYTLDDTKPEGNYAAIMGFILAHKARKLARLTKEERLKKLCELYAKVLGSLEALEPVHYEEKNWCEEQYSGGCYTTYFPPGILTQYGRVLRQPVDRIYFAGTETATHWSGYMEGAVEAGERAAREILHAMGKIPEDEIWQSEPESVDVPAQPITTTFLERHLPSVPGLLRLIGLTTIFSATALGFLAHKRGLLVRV

Biological target: B-form of the enzyme monoamine oxidase (MAO-B) (Homo sapiens, UniProt P27338)
Settings: qualitative statement in the background; cited from earlier work

C#CCN[C@@H]1CCc2ccccc21.CS(=O)(=O)O [Rasagiline mesylate, rasagiline mesylate]
Inhibition of MAO-B: selective and potent irreversible inhibitor
